Results as given in patent publication US10342221B2, “Generation of an inducible pericyte-specific CRE mouse model” (University of Southern California, priority 2016, dated 2019).

System: pericytes
Conditions: mouse, in vivo

CC/C(=C(\c1ccccc1)c1ccc(OCCN(C)C)cc1)c1ccccc1 [TAM, Tamoxifen]
cell-type specificity of tdTomato expression: specifically in pericytes
